Earlier results as cited in US6967218B2, “Pravastatin pharmaceutical formulations and methods of their use” (Biovail Laboratories, Inc., priority 2002, dated 2005).

Target: T1, HMG-CoA reductase (Homo sapiens, UniProt P04035)
T1 sequence (P04035 1-888): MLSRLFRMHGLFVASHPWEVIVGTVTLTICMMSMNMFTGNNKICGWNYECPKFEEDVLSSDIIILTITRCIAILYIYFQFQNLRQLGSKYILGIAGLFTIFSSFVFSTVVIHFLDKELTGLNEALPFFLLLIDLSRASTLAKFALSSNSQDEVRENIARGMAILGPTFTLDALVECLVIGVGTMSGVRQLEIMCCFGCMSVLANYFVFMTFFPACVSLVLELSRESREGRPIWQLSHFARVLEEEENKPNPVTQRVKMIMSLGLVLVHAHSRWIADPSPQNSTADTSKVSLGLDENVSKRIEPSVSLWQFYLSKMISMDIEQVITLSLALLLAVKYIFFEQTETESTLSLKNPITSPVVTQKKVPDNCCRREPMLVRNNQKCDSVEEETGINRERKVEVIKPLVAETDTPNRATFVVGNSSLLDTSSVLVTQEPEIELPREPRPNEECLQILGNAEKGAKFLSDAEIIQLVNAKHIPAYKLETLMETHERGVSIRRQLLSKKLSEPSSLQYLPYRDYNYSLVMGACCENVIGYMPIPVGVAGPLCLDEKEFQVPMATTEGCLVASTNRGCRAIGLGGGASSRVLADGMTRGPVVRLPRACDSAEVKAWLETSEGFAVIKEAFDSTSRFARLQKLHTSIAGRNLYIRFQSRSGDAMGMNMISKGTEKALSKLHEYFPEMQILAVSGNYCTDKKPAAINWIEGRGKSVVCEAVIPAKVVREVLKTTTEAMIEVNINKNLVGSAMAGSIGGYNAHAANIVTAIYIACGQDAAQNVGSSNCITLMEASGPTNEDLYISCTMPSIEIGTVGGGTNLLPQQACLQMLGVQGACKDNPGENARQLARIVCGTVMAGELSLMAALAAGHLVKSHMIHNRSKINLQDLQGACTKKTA
Conditions: fraction of pravastatin activity

CCC(C)C(=O)O[C@H]1CC=CC2=C[C@H](O)[C@H](C)[C@H](CC[C@@H](O)C[C@@H](O)CC(=O)O)[C@H]21 (single isomer, unassigned) [3α-hydroxy isomeric metabolite, 3α-hydroxyisomer of pravastatin]
HMG-CoA reductase inhibitory activity relative to the parent compound: one-tenth to one-fortieth
